Results from patent US10172870B2, “Method of treating organophosphate intoxication by administration of neurosteroids” (dated 2019).

What was measured:
[1] = system: GD-induced neuronal injury, neuronal cell death, and neurodegeneration; assay: Soman-induced neuronal injury, neurodegeneration and neuroinflammation (FJB, NeuN, PV, GFAP histology, neurostereology); details: for acute neuronal injury assessed by FJB-positive cell counts: 40 minutes after soman
[2] = system: soman-induced SE and seizure activity; assay: Soman-induced OP intoxication, seizures and status epilepticus in rats (behavioral and EEG monitoring, mortality)
[3] = system: pilocarpine model of refractory SE; details: given 60-min after SE, rats; cited from earlier work
[4] = system: VX-induced acute neuronal damage; assay: VX-induced acute neuronal injury in hippocampus CA1 (FJB staining); details: ganaxolone 10 mg/kg im 40 minutes after VX
[5] = system: VX-induced seizures or status epilepticus; assay: VX-induced OP intoxication, seizures and status epilepticus in rats
[6] = system: soman-induced long-term cognitive neurobehavioral and epileptogenic dysfunction; assay: Soman-induced long-term epileptogenic and memory dysfunction (video-EEG, novel object recognition test)

In the case of `CC(=O)[C@H]1CC[C@H]2[C@@H]3CC[C@H]4C[C@H](O)CC[C@]4(C)[C@H]3C(=O)C[C@]12C`, the “acute neuronal injury assessed by FJB-positive cell counts” value (“acute neuronal injury assessed” for short) ([1]; neurosteroid 10 mg/kg im) is reported as “significantly prevented”.
For `Cc1ncc2n1-c1ccc(Cl)cc1C(c1ccccc1F)=NC2`, the “protection against soman-induced seizures” value ([2]; midazolam alone 2 mg/kg im at 40-min post-soman) was “failed to protect”.
For `CC(=O)[C@H]1CC[C@H]2[C@@H]3CC[C@H]4C[C@H](O)CC[C@]4(C)[C@H]3CC[C@]12C`, the “acute neuronal injury assessed” value ([1]; neurosteroid 10 mg/kg im) was “significantly prevented”.
For 5α-pregnane-3α,21-diol-20-one, the “acute neuronal injury assessed” value ([1]; neurosteroid 10 mg/kg im) is given as “significantly prevented” and the “termination of SE” value [3] is given as “rapid and complete termination of SE”.
For `CC(=O)[C@H]1CC[C@H]2[C@@H]3CC[C@H]4C[C@](C)(O)CC[C@]4(C)[C@H]3CC[C@]12C`, the “fractional cell death assessed by FJB(+) staining and unbiased quantitative stereology” value [4] was “significantly reduced”, the “acute neuronal injury assessed” value ([4]; 24 h post-VX) was “significantly prevented” and the “time after treatment within which electrographic and behavioral activity was effectively controlled” value ([5]; ganaxolone 10 mg/kg im at 40 min after VX, rats) was 40 to 60 min. The survival rate ([5]; ganaxolone 10 mg/kg im, 40 minute post-exposure to VX) was “improved survival rate”, the “decrease of cell death of interneurons assessed by parvalbumin (PV) staining” value ([1]; ganaxolone 10 mg/kg im, 40 min or later after soman) was greater than 85% and the “neuroinflammation assessed by GFAP-positive staining” value ([1]; ganaxolone 10 mg/kg im, 40 min post-GD) was “significantly reduced”. For the same compound, the “memory impairment in the NORT” value ([6]; 3 months post-exposure to soman, ganaxolone-treated group) was “attenuated”, the “occurrence of epilepsy development (spontaneous seizures, video-EEG)” value ([6]; ganaxolone 6 & 10 mg/kg im, 1 to 3 months post-soman, control up to 75% animals with spontaneous seizures) was “significantly prevented” and the “EEG seizure intensity compared to soman control” value ([6]; ganaxolone 6 & 10 mg/kg im, post-soman) was “reduced”. For the same compound, the “time after treatment within which electrographic and behavioral activity was effectively controlled” value ([2]; ganaxolone 10 mg/kg im given 40 min, 60 min or 120 min after soman, rats) was 40 to 60 min.
With `C[C@]12CC[C@@H](O)C[C@@H]1CC[C@@H]1[C@@H]2CC[C@]2(C)[C@@H](O)CC[C@@H]12` the “acute neuronal injury assessed” value ([1]; neurosteroid 100 mg/kg im) was “significantly prevented”.
